We go through 6 compounds from article PMC7470027, “Synthesis and structure-activity relationships of novel 5-(hydroxamic acid)methyl oxazolidinone derivatives as 5-lipoxygenase inhibitors” (Journal of Enzyme Inhibition and Medicinal Chemistry, 2020).

Chains of the proteins cited; added tags and fusions are not shown.
UniProt P09917, whole entry: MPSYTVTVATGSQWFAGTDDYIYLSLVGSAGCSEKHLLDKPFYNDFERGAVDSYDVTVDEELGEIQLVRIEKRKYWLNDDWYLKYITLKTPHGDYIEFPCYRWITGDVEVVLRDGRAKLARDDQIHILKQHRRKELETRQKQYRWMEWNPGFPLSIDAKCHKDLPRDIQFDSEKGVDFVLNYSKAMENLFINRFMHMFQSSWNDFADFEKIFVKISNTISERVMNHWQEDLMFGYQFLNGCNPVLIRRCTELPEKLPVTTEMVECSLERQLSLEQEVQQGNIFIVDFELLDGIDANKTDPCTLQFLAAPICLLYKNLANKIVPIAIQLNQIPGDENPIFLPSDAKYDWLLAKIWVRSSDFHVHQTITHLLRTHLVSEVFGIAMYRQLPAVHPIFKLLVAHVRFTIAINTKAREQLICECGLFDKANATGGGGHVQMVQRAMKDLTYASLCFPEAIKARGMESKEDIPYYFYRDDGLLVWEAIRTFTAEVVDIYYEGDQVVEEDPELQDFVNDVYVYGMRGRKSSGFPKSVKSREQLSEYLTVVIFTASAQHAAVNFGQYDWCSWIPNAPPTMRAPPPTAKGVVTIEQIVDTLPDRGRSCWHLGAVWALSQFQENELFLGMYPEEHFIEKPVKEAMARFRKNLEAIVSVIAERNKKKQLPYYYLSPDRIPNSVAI

In experiment [1] the test system is 5-LO product LTC4 from allergen/IgE-activated bone marrow-derived mouse mast cells (BMMC). Kind of experiment: Inhibition of 5-LO product LTC4 from allergen/IgE-activated bone marrow-derived mouse mast cells (BMMC). Particulars: read-out: Mouse mast cell LTC4 IC50 (CI); anti-DNP IgE/DNP-BSA-activated BMMC; 95% confidence interval in brackets.
A further experiment has as its target recombinant human 5-LO (Homo sapiens, UniProt P09917). Briefly: Direct inhibition of 5-LO activity in a cell-free assay (H2DCF-DA fluorescence). Particulars: read-out: Direct inhibition of 5-LO activity. IC50 (CI), 95% confidence interval in brackets. The format is biochemical.
Experiment [2] has as its system 5-LO product LTC4 from isolated human monocytes. Briefly: Inhibition of 5-LO product LTC4 from isolated human monocytes (A23187). Particulars: read-out: Human monocyte LTC4 IC50 (CI), calcium ionophore A23187, 95% confidence interval in brackets.
Experiment [3] has as its system 5-LO-dependent generation of LTB4 from activated human whole blood. Kind of experiment: Inhibition of 5-LO product LTB4 from activated human whole blood (LPS/FMLP). The conditions noted are these: read-out: Human whole blood LTB4 IC50 (CI); LPS-primed, FMLP-stimulated human whole blood; 95% confidence interval in brackets.

For the compound `CC(=O)N1CCN(c2ccc(N3CC(CN(O)C(=O)C(C)C)OC3=O)cc2F)CC1` (centres unmarked), the IC50 was above 50 µM in experiment [1], 14.8 µM on recombinant human 5-LO and 32.7 µM in experiment [2].

As to `CC(=O)N1CCN(c2ccc(N3CC(CN(O)C(=O)C4CC4)OC3=O)cc2F)CC1` (centres unmarked), the IC50 in experiment [1] is above 50 µM; in experiment [3], 22.5 µM; on recombinant human 5-LO, 7.8 µM; in experiment [2], 23.3 µM.

Turning to `CC(=O)N(O)CC1CN(c2ccc(N3CCN(C(C)=O)CC3)c(F)c2)C(=O)O1` (centres unmarked), the IC50 was above 50 µM in experiment [1], 38 µM in experiment [3], above 30 µM on recombinant human 5-LO and above 50 µM in experiment [2].

As to `O=C(ON(C[C@H]1CN(c2ccc(N3CCOCC3)c(F)c2)C(=O)O1)C(=O)C1CC1)C1CC1`, the IC50 in experiment [2] was above 50 µM.

For `CC(=O)N1CCN(c2ccc(N3CC(CN(OC(=O)C4CC4)C(=O)C4CC4)OC3=O)cc2F)CC1` (centres unmarked), the IC50 is above 50 µM in experiment [1], 38.2 µM in experiment [3], above 30 µM on recombinant human 5-LO and above 50 µM in experiment [2].

Regarding `CC(C)C(=O)ON(C[C@H]1CN(c2ccc(N3CCOCC3)c(F)c2)C(=O)O1)C(=O)C(C)C`, the IC50 in experiment [2] was above 50 µM.

What is called IC50 is the midpoint of a concentration-inhibition curve.
